The source of these data is paper PMC8670751 (Science immunology, 2021).

For orientation: Kd means the concentration at which binding is half-saturated.

The experiment deals with T1, HLA-DQ2.5:DQ2.5-glia-α2, recombinant soluble pMHC (Homo sapiens, HLA-DQ2.5 …, strain).
T1 chain 1: not shown
T1 chain 2: not shown
The experiment is described as follows: SPR.

B1: Fab 3.C11 (Fab, V domains shown)
VH: QVQLVQSGAEVKKPGSSVKVSCKASGGTVRSRVHAISWVRQAPGQGLEWMGGIIPIFGTANYAQKFQGRVTITADESTSTAYMELSSLRSEDTAVYYCARDVQRMGMDVWGQGTTVTVSS
VL: DIQMTQSPSSVSTSVGDRVTITCRASQDISNWLAWYQQKPGKAPKLLIYDSSTLQSGVPSRFSGSGSGTDFTLTISTLQPEDFATYYCQQFNSYPLTFGGGTKVDIK
Turning to B1, the Kd stood at 0.088 ± 0.008 nM.
